{"source": "paper PMC5905335", "about": "(Cancer discovery, 2017)", "key": {"[1]": {"tested_on": "PARP", "assay": "PBMC PARP activity", "assay_type": "in vivo, human", "settings": "multiple dosing 1.0 mg/day, n = 4"}, "[2]": {"assay": "Plasma pharmacokinetics after single and multiple daily dosing", "settings": "human, in vivo"}}, "data": [{"compound": "Cn1ncnc1[C@H]1c2n[nH]c(=O)c3cc(F)cc(c23)N[C@@H]1c1ccc(F)cc1", "note": "[talazoparib]", "values": [{"measurement": "PARP activity, mean (SD)", "setting": "[1]", "result": "21.1 (14.9) % baseline"}, {"measurement": "CL/F, mean (SD)", "setting": "[2]; 0.025 mg", "result": "5.17 (2.10) L/h"}, {"measurement": "CL/F, mean (SD)", "setting": "[2]; 0.05 mg", "result": "6.27 (1.66) L/h"}, {"measurement": "CL/F, mean (SD)", "setting": "[2]; 0.1 mg", "result": "2.72 (0.532) L/h"}, {"measurement": "CL/F, mean (SD)", "setting": "[2]; 0.2 mg", "result": "2.61 (1.35) L/h"}, {"measurement": "CL/F, mean (SD)", "setting": "[2]; 0.4 mg", "result": "6.95 (1.71) L/h"}, {"measurement": "CL/F, mean (SD)", "setting": "[2]; 0.6 mg", "result": "5.19 (0.99) L/h"}, {"measurement": "CL/F, mean (SD)", "setting": "[2]; 0.9 mg", "result": "5.49 (2.08) L/h"}, {"measurement": "CL/F, mean (SD)", "setting": "[2]; 1 mg", "result": "5.39 (1.59) L/h"}, {"measurement": "CL/F, mean (SD)", "setting": "[2]; 1.1 mg", "result": "5.32 (1.64) L/h"}]}]}
